By UniProt entry, the sequences of proteins in these tests, tags left out. Chains listed by the source or under a name are the forms on record and can include a tag or linker.
UniProt P43116, with tags, fused parts or gaps DEL238-250: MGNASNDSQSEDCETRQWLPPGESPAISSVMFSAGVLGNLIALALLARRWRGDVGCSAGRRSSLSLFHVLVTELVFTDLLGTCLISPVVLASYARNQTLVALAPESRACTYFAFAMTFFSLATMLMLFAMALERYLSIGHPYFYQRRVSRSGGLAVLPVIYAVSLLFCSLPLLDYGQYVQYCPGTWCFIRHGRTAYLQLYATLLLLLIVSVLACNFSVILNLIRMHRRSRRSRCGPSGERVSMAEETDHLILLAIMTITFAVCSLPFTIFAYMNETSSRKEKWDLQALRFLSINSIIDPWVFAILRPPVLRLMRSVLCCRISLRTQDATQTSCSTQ

According to publication PMC12687449, “Membrane disruption attenuates agonist potency in prostanoid receptors” (Biochemical Journal, 2025):

Target: T1, EP2 receptor conformation sensor (Homo sapiens, UniProt P43116, DEL238-250)
T1 construct: mT2 insertion and truncation after Q349; expressed in transfected cells
Assay: FRET-based EP2 receptor conformation sensor, single-cell measurements in HEK293 cells
Procedure: The cells were washed once with external buffer and subsequently incubated 2 minutes for single-cell FRET measurements or 10 minutes for BRET measurements in 0.05% saponin (AppliChem, Darmstadt, Germany) dissolved in internal buffer. Afterward, the cells were washed five times for single-cell FRET measurements or three times for BRET measurements with internal buffer.
The coverslips loaded with stably transfected HEK293 cells containing either the FFA3 receptor, α2A-AR CAM, or ETB receptor conformation sensors were clamped in an Attofluor^TM cell chamber and were washed once with external buffer. Afterward, they were side by side either permeabilized or directly measured at room temperature by the use of an inverted microscope (Elipse Ti2, Nikon, Düsseldorf, Germany), equipped with a 100× oil immersion objective (Plan Apo λ 100 x/1.45 oil ∞/0.17 WD 0.13, Nikon, Düsseldorf, Germany) and dual excitation and dual emission imaging capabilities. […] The fluorescence emission of mT2 and the respective YFP variant was simultaneously collected by a second beamsplitter (488, Chroma, Bellows Falls, Vermont, U.S.A.) and two emission filters (mT2: 474/27, Chroma; YFP: 544/23, Chroma). […] For all single-cell FRET experiments, cells were prospectively selected based on a continuous plasma-membrane fluorescence rim and appropriate fluorescence distribution to ensure a PM-dominant receptor signal. […]

SMILES: CCCCC[C@H](O)/C=C/[C@H]1[C@H](O)CC(=O)[C@@H]1C/C=C\CCCC(=O)O [PGE2, (Z)-7-[(1R,2R,3R)-3-hydroxy-2-[(E,3S)-3-hydroxyoct-1-enyl]-5-oxocyclopentyl]hept-5-enoic acid]
- EC50: 209 nM
- response to the test concentration (about 10 times EC50) normalized to saturating concentration (intact cells, 3000 nM PGE2, reference 20 µM PGE2): full response
